Measured values reported in patent publication US11896675B2, “Site-specific antibody conjugation and antibody-drug conjugate as specific embodiment thereof” (AbTis Co., Ltd., priority 2019, dated 2024).

System: NCl-N87 gastric cancer cell line xenograft
Test: Anti-cancer efficacy test in NCl-N87 xenograft model
Format: in vivo, BALB/c nude mice
Details: 5 mg/kg intravenous, once/3 day three times, observation period 5 weeks
Text: A target antigen-overexpressing NCl-N87 gastric cancer cell line was subcutaneously transplanted into mice to establish a xenograft model, and the mice were divided into 4 groups to perform an anti-cancer efficacy test on the materials administered. Because the BALB/c nude mice used in this test were deficient in T cells, cancer cells were easily transplanted into the BALB/c nude mice. Therefore, the BALB/c nude mice were used as a model suitable for an anti-cancer efficacy test using a rodent. One vial of a human tumor cell line (NCl-N87 cell line) was put into a cell culture flask containing an RPMI1640 medium (Gibco, 22400-089) supplemented with heat-inactivated 10% fetal bovine serum (FBS; Gibco, 10082-742), and cultured at 37° C. in a 5% CO2 incubator. The cell culture medium was washed with PBS, and diluted 10-fold with 2.5% trypsin-EDTA (Gibco, 15090). Thereafter, the diluted cell culture medium was added to separate the cells, and the cells were centrifuged (at 1,000 rpm for 5 minutes) to discard a supernatant. […] Group 5: AbClick®Pro(VC, DM1); and Group 6: AbClick®Pro(VC, MMAE) The tumor size was measured twice a week for 5 weeks from the start date for administration of the test substance. The major- and minor-axis lengths of a tumor were measured using calipers, and the tumor size was calculated according to the following equation. […]

## trastuzumab
  suppression of the growth of tumor: did not show a tendency to suppress the growth of tumor
